Earlier results, collected in patent publication US20070212428A1, “METHODS AND COMPOSITIONS FOR TREATING MOOD DISORDER” (MOOD MANAGEMENT SCIENCES, INC., priority 2004, published 2007).

Conditions: cited from earlier work

## 1-(aminoethyl)cyclohexaneacetic acid [gabapentin]
900 mg/day given in 3 divided doses
  bioavailability: approximately 60%
1200 mg/day given in 3 divided doses
  bioavailability: ~47%
2400 mg/day given in 3 divided doses
  bioavailability: ~34%
3600 mg/day given in 3 divided doses
  bioavailability: ~33%
4800 mg/day given in 3 divided doses
  bioavailability: ~27%

Where two headings read alike, the source gives them in different places.
